Target: T1, Serine/threonine-protein kinase Chk1 (Homo sapiens, UniProt O14757)
T1 sequence (O14757 whole entry): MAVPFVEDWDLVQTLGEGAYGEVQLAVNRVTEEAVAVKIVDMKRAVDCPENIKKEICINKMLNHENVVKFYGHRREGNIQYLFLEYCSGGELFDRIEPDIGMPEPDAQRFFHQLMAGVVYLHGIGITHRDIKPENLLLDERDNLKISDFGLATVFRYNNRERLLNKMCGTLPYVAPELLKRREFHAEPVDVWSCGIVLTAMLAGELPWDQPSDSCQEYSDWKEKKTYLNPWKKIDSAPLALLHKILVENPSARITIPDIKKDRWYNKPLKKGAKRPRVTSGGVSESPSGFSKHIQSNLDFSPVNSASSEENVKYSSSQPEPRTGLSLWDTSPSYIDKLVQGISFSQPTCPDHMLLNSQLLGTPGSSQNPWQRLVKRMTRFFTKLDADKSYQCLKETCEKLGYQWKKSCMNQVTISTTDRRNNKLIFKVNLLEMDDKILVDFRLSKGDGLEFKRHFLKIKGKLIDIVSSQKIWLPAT
Test: Inhibition of recombinant His-CHK1 expressed in baculovirus after 2 hrs by scintillation proximity assay

Cc1cc(Nc2cc(C3CCCNC3)nc3c(-c4cnn(C)c4)cnn23)sn1 (stereo unspecified)
IC50: 9 nM
